For the test, the target named is Adenosine receptor A2a (Homo sapiens) (UniProt P29274). The experiment in a line: Displacement of [3H]DPCPX from human A2AAR expressed in human HeLa cell membrane at 1 uM incubated for 30 mins by competitive binding assay relative to control. It counts as cell membranes. In general terms: Displacement assays read how much labelled ligand stays bound in the presence of the test substance.

`CCOC(=O)C1=C(C)Nc2nc3ccccc3n2C1c1cocn1` (stereo unspecified) yielded an Activity of 11%.

The values are drawn from ChEMBL document CHEMBL5321195, “Exploring the Effect of Halogenation in a Series of Potent and Selective A2B Adenosine Receptor Antagonists” (J Med Chem, 2023).
